From ChEMBL document CHEMBL3132828, “In vitro anticancer activity and SAR studies of triazolyl aminoacyl(peptidyl) penicillins” (Medchemcomm, 2014)

Tests used:
[1] = Selectivity ratio of IC50 for mouse NMuMG cells to IC50 for mouse B16F0 cells; type: ADME, cell-based
[2] = Cytotoxicity against mouse NMuMG cells assessed as hexosaminidase level after 72 hrs by colorimetric analysis; type: cell-based
[3] = Cytotoxicity against mouse B16F0 cells assessed as hexosaminidase level after 72 hrs by colorimetric analysis
[4] = Selectivity ratio of IC50 for mouse NMuMG cells to IC50 for human HeLa cells; type: ADME, cell-based
[5] = test system: HeLa; assay: Cytotoxicity against human HeLa cells assessed as hexosaminidase level after 72 hrs by colorimetric analysis

In the case of `COC(=O)[C@H](CC(C)C)NC(=O)c1cn(C[C@@H]2N3C(=O)C(Br)(Br)[C@H]3SC2(C)C)nn1`, the Ratio IC50 [1] was 2, the pIC50 [2] was 4.41 and the pIC50 [3] was 4.74.

In the case of `CC1(C)S[C@H]2N(C(=O)C2(Br)Br)[C@H]1C(=O)OCc1ccccc1`, the Ratio IC50 [1] was 5, the Ratio IC50 [4] was 6 and the pIC50 [2] was 4.16. For the same compound, the pIC50 [3] was 4.82 and the pIC50 [5] was 4.92.

With `COC(=O)[C@@H](NC(=O)c1cn(C[C@@H]2N3C(=O)C(Br)(Br)[C@H]3SC2(C)C)nn1)C(C)C` the Ratio IC50 [1] was 2, the Ratio IC50 [4] was 3 and the pIC50 [2] was 4.48. For the same compound, the pIC50 [3] was 4.74 and the pIC50 [5] was 4.92.

pIC50: −log10 of the molar value.
